Apparent affinities of Ab-14 variants for a coronavirus HR2 peptide

Values reported by Li et al. 2023, doi:10.1038/s41467-023-39022-2 (FLAb copy).

Binding partner: SARS-CoV-2 spike HR2 peptide, sequence PDVDLGDISGINAS.

Parent scFv Ab-14: VH joined to VL by three GGGGS repeats. Changes lie in the light chain CDRs alone.
VH: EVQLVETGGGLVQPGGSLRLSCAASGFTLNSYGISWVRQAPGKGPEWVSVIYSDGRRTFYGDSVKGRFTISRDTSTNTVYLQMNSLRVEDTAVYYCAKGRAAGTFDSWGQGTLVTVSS
VL: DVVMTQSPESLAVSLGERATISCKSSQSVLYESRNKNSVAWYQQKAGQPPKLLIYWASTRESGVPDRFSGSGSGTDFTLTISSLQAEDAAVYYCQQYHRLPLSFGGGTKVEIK

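Phage display of a naive human antibody library on the peptide gave the parent. Designed CDR sequences, proposed from the first random library and measured here. Group labels follow the data file (Ctrl: baseline library sampled from a position-specific scoring matrix, with some repeated check sequences; GP: Gaussian process model; HC: hill climbing; Gen: genetic algorithm; a sequence that several methods proposed may carry one label only). The assay is AlphaSeq: two haploid yeast populations carry antibody and antigen on their surface. After mating in shaken culture at 30 °C for 16 h, diploids were selected and their barcode pairs sequenced. Scores were corrected for input abundance and mapped to Kd with protein pairs of known affinity run in the same pool. There are six technical replicates.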

Each variant's VL is given in full. Variants here have at most six changes. The Kd shown is the geometric mean over detected replicates; a lower Kd is a better binder. "nd" marks a missing value. The strain was present, yet no cells mated with the target were sequenced in any replicate, which points to weak or no binding. The authors averaged sequences with at least three values out of six and counted those with two or fewer as poor binders.

VL,group,apparent Kd,detected
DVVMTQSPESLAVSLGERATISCKMSQSVLYESRNKNSVAWYQQKAGQPPKLLIYKASTRESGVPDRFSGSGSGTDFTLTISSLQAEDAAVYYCQQYHRLPLSFGGGTKVEIK,Ctrl,930 pM,6 of 6
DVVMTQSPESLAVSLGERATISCKSSISYLYESRNKNSVAWYQQKAGQPPKLLIYEASTREQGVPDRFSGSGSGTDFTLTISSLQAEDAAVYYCQQYHRLPLMFGGGTKVEIK,GP_HC,2.0 nM,6 of 6
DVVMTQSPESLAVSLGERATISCKLSQSVLDESRNKNSVAWYQQKAGQPPKLLIYWASTRESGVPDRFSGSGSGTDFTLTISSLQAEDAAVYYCQQYHRLILPFGGGTKVEIK,Ctrl,60 nM,1 of 6
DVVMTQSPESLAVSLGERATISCHSSPSVLYESRNKNSVAWYQQKAGQPPKLLIYNASTREMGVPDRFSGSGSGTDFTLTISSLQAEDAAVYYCQQYHRLPLQFGGGTKVEIK,GP_HC,13 nM,6 of 6
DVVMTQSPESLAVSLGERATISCSLQQSVLYESRNKNSVAWYQQKAGQPPKLLIYHASLREDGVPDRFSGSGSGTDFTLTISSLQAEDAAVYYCQQYHRLPLSFGGGTKVEIK,GP_HC,4.0 nM,6 of 6
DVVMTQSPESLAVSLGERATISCKSSQSVWYESRSKNSVAWYQQKAGQPPKLLIYWASTRWSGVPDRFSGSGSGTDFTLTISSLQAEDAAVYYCQQYHRLPLSFGGGTKVEIK,Ctrl,640 nM,2 of 6
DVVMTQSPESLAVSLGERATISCHLSPSVLYESRNKNSVAWYQQKAGQPPKLLIYNASTREDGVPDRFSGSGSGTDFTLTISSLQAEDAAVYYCQQYHRLPLSFGGGTKVEIK,GP_HC,400 pM,6 of 6
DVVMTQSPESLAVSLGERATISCHSSPSVHYESRNKNSVAWYQQKAGQPPKLLIYNASTREEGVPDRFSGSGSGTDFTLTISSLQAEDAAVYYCQDYHRLPLSFGGGTKVEIK,GP_HC,1.0 nM,6 of 6
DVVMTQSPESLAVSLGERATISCKSSMSWLYESRNKNSVAWYQQKAGQPPKLLIYGASSRESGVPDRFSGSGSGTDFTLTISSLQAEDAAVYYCQQYHRLPLSFGGGTKVEIK,GP_HC,2.0 nM,6 of 6
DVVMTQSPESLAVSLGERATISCKSSQSDLYESRNKVSVAWYQQKAGQPPKLLIYWASTRESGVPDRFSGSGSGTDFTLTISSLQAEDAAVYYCQQYHRLPISFGGGTKVEIK,Ctrl,93 nM,1 of 6
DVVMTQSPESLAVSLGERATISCKSSGGWLYESRNKNSVAWYQQKAGQPPKLLIYGASTREDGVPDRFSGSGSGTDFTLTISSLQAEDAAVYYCQQYHRLPLSFGGGTKVEIK,GP_HC,710 pM,6 of 6
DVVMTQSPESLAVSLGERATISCNSSQSALYESRNKNSVAWYQQKAGQPPKLLIYGGNTRESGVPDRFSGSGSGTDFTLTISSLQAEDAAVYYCQQYHRLPLSFGGGTKVEIK,GP_HC,1.2 nM,6 of 6
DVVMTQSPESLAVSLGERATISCKSSQSVLYESTNKNSVAWYQQKAGQPPKLLIYDASTRESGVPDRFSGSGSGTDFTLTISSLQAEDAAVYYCQQYHRLPLSFGGGTKVEIK,Ctrl,780 pM,6 of 6
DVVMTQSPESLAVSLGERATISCKLSQSELYESRNKWSVAWYQQKAGQPPKLLIYNASQRESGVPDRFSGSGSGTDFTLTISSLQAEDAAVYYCQQYHRLPLSFGGGTKVEIK,GP_Gen,330 pM,6 of 6
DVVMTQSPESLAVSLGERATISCKLSQSVLYESRMKNNVAWYQQKAGQPPKLLIYSASTRESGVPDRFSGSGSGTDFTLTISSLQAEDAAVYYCQQYHRLPLSFGGGTKVEIK,GP_Gen,850 pM,6 of 6
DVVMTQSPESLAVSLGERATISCKLSQSVLYESRAKNSVAWYQQKAGQPPKLLIYGASTRESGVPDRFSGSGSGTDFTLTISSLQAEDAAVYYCQQYHRLPLSFGGGTKVEIK,GP_Gen,610 pM,6 of 6
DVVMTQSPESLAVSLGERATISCKSSQSVLYESRNGNSVAWYQQKAGQPPKLLIYWASTRDSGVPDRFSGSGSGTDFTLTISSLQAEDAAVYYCQQYHGLPLSFGGGTKVEIK,Ctrl,140 nM,1 of 6
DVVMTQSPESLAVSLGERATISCKLPQSGLYESRNKNSVAWYQQKAGQPPKLLIYNASTRESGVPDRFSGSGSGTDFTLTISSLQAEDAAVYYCQQYHRLPLSFGGGTKVEIK,GP_Gen,610 pM,6 of 6
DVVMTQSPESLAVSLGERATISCKLSQSVLYEDRNFNSVAWYQQKAGQPPKLLIYNASQRESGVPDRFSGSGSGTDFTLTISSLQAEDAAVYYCQQYHRLPLSFGGGTKVEIK,GP_Gen,2.3 nM,6 of 6
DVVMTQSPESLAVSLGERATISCKLSQSHLYESRNKNAVAWYQQKAGQPPKLLIYNASQRESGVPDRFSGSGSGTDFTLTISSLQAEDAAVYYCQQYHRLPLSFGGGTKVEIK,GP_Gen,340 pM,6 of 6
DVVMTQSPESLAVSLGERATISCKFSQSVLYESRNKNSVAWYQQKAGQPPKLLIYGASHRESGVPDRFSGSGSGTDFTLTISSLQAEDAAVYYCQYIHRLPLSFGGGTKVEIK,Ctrl,1.0 nM,6 of 6
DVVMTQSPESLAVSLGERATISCKLFQSVLYESRNKNSVAWYQQKAGQPPKLLIYHASTREDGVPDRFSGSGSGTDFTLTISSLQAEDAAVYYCQQYHRLPLSFGGGTKVEIK,GP_HC,1.5 nM,6 of 6
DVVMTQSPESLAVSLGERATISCKSSQSVIYESRWKNSVAWYQQKAGQPPKLLIYWASTREDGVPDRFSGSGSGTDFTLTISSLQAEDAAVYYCQQYRRIPLSFGGGTKVEIK,Ctrl,nd,0 of 6

The parent sequence was in this pool as ten entries: three were never detected, three once, and four in most replicates, with averages from 2.2 nM to 240 nM. A sequence measured in both rounds can read differently, since the two assays cover different ranges. Three control strains display no target. For all light chain designs, 4% of the pairings with them gave a signal, with a median of 430 nM and one signal in twenty below 38 nM, so weak values seen in few replicates may be background.